What was measured:
[1] = target: RAF proto-oncogene serine/threonine-protein kinase (Homo sapiens, UniProt P04049, Y340E/Y341E); experiment: Inhibition of CRAF Y340E/Y341E mutant (unknown origin) using human MEK1 K97R mutant as substrate pretreated for 30 mins followed by substrate addition measured after 40 mins by alphascreen assay
[2] = target: T1, RAF proto-oncogene serine/threonine-protein kinase (Homo sapiens, UniProt P04049); experiment: Inhibition CRAF in human Calu6 cells assessed as decrease in MEK phosphorylation after 2 hrs by HTRF method; type: cell-based
[3] = target: T1, RAF proto-oncogene serine/threonine-protein kinase; experiment: Inhibition of CRAF in human Calu6 cells assessed as decrease in ERK phosphorylation; type: cell-based
BRAF/CRAF = BRAF/CRAF (Homo sapiens, UniProt P04049+P15056); experiment: Stimulation of BRAF-CRAF dimerization in human HCT116 cells by luciferase complementation assay; type: cell-based

The chains behind the UniProt entries cited, without tags or fusion partners.
UniProt P04049, whole entry Y340E/Y341E: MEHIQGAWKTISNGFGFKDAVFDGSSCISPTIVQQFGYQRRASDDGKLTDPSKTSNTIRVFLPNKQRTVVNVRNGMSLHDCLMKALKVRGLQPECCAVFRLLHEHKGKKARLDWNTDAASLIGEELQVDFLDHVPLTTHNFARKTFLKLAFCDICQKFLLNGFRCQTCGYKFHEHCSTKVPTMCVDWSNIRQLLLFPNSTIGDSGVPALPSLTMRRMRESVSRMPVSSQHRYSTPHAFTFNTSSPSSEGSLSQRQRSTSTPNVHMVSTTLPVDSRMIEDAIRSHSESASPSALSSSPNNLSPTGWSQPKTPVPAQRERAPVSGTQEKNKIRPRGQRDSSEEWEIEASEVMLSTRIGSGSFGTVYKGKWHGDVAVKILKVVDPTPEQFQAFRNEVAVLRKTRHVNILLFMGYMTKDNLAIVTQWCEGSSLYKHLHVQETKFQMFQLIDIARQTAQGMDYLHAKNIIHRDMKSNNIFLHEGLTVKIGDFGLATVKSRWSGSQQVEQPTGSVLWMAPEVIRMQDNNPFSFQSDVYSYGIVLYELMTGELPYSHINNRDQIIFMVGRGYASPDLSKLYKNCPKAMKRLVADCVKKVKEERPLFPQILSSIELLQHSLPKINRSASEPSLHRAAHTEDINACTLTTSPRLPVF
UniProt P15056, whole entry: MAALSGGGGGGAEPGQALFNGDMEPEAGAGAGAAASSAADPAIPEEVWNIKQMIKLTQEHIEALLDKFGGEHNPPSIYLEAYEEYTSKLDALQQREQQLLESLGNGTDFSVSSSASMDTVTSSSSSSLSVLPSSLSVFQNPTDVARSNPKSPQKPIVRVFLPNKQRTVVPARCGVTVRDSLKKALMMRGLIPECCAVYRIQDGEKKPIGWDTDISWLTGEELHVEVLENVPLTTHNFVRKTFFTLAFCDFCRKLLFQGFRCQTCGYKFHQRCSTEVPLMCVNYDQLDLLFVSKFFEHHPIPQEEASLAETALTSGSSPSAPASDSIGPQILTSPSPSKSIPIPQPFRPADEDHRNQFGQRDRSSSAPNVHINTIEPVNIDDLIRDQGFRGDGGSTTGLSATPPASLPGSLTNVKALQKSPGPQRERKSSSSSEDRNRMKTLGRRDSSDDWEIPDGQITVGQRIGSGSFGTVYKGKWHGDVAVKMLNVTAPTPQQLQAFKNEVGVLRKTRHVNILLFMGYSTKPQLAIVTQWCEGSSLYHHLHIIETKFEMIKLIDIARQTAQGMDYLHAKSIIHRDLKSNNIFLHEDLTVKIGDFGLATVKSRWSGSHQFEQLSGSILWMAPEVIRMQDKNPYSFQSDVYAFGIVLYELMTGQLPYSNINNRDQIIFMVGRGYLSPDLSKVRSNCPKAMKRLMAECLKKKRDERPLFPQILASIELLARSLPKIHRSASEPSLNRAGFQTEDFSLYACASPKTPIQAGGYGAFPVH

Row | IC50 [1] [nM] | EC50 [2] [nM] | Compound | EC50 [3] [nM] | EC50 (BRAF/CRAF) [nM]
1 | 0.6 | 300 | Cc1ncc(NC(=O)c2cccc(C(F)(F)F)c2)cc1-c1cnc(OC(C)C)c(N2CCOCC2)c1 | – | –
2 | – | 80 | Cc1ccc(NC(=O)c2cccc(C(F)(F)F)c2)cc1-c1cc(N2CCOCC2)ncn1 | – | –
3 | 0.5 | 80 | Cc1ncc(NC(=O)c2cccc(C(F)(F)F)c2)cc1-c1cnc(OCCO)c(N2CCOCC2)c1 | – | –

Row | Compound | IC50 [1] [nM] | EC50 [2] [nM] | EC50 [3] [nM] | EC50 (BRAF/CRAF) [nM]
4 | Cc1ncc(NC(=O)c2cccc(C(F)(F)F)c2)cc1-c1cnc(OC2CCOCC2)c(N2CCOCC2)c1 | – | 20 | 100 | 796

From ChEMBL document CHEMBL4011620, “Design and Discovery of N-(2-Methyl-5'-morpholino-6'-((tetrahydro-2H-pyran-4-yl)oxy)-[3,3'-bipyridin]-5-yl)-3-(trifluoromethyl)benzamide (RAF709): A Potent, Selective, and Efficacious RAF Inhibitor Targeting RAS Mutant Cancers” (J Med Chem, 2017)
